Experiments:
[1] = target: ZFHD1-3FKBP and 1FRB-p65(361-550) stably integrated in HT1080 cells (Homo sapiens, UniProt P42345+P62942); assay: Rapamycin-dependent SEAP production in stably transfected HT1080 cell lines (HT20-6 clone, HT23 pool); format: cell-based
[2] = target: ZFHD1-3FKBP and 1FRB-p65(361-550) fusion proteins in HT1080 cells (Homo sapiens, UniProt P42345+P62942); assay: Rapamycin-dependent SEAP transcriptional activation in transiently transfected HT1080 cells; format: cell-based

Amino acid sequences for entries named in this document (tags omitted). A change or cut given only in a name is not applied to a line headed by its entry.
UniProt P62942: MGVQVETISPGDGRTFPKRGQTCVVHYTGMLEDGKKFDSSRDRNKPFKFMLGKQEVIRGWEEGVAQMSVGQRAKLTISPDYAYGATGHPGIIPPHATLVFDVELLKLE

**Q.** `CO[C@H]1C[C@@H]2CC[C@@H](C)[C@@](O)(O2)C(=O)C(=O)N2CCCC[C@H]2C(=O)O[C@H]([C@H](C)C[C@@H]2CC[C@@H](O)[C@H](OC)C2)CC(=O)[C@H](C)/C=C(\C)[C@@H](O)[C@@H](OC)C(=O)[C@H](C)C[C@H](C)/C=C/C=C/C=C/1C` [rapamycin, Rapamycin] was tested. Which “SEAP production in pool of clones with bicistronic vector” value ([1]; HT23 pool, FIG. 4D) did it give?
**A.** rapamycin-dependent SEAP production with no detectable background

**Q.** And the SEAP activity ([1]; stable clone, extended SEAP assay, at 1100 nM rapamycin)?
**A.** over 90,000 arbitrary fluorescence units

**Q.** What about the “rapamycin concentration at which SEAP secretion was detectable (as low as)” value ([2]; transiently transfected HT1080, 24 hours, FIG. 4A) of the same compound?
**A.** 0.5 nM

**Q.** And the “rapamycin concentration of peak SEAP secretion” value ([2]; transiently transfected HT1080, FIG. 4A)?
**A.** 5 nM

Reference: US20030206891A1, “Rapamycin-based biological regulation” (ARIAD Gene Therapeutics, Inc., priority 1995, published 2003)
